# Laboratory results from paper doi:10.1101/2022.05.23.493136 (bioRxiv, 2022).
# B1: HfqΔCTD (truncated Hfq lacking the CTDs) (domain or fragment, E. coli, UniProt P0A6X3 1-65, looked up)
# chain: MAKGQSLQDPFLNALRRERVPVSIYLVNGIKLQGQIESFDQFVILLKNTVSQMVYKHAISTVVPS
# Target: the molecule itself
# Experiment: native MS
protein,measurement,value
B1,stoichiometry N,6
